The text below walks through data of publication PMC8165606, “Effects of Natural Monoamine Oxidase Inhibitors on Anxiety-Like Behavior in Zebrafish” (Frontiers in Pharmacology, 2021).

Amino acid sequences for entries named in this document (tags omitted).
UniProt P21397, whole entry, species assumed: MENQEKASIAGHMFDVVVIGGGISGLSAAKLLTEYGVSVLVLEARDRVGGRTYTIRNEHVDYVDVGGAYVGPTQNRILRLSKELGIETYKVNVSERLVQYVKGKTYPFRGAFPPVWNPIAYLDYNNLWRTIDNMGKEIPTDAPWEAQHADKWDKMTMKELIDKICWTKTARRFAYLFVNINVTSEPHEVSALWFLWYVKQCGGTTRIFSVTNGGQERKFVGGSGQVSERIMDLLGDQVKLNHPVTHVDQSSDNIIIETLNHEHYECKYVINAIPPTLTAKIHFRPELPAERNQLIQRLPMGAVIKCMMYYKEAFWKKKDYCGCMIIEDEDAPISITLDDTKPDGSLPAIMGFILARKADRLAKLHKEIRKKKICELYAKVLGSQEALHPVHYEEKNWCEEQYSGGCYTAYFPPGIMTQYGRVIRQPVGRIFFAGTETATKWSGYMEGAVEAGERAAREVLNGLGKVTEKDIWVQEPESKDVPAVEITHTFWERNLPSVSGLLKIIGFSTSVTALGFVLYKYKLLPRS
UniProt P27338, whole entry, species assumed: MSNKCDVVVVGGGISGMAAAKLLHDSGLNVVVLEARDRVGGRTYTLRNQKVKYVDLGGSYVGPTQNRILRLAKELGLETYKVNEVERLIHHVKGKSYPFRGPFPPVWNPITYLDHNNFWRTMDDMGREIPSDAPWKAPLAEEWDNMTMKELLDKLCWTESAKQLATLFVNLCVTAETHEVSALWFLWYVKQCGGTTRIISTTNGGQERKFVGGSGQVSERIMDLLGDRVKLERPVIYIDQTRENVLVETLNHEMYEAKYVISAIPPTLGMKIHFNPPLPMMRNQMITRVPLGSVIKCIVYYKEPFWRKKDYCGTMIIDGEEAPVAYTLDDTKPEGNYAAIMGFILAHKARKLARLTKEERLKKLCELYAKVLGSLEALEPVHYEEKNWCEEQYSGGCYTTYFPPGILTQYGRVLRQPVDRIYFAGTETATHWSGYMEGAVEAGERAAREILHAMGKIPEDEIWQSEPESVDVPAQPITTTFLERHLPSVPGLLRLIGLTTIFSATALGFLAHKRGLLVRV

Where “and” joins values, the source holds several entries; their conditions need not be identical. Equal values may be shown once. Where a name gives a salt, the structure may show the parent alone. Read-outs that look alike come from different tables or passages of the source.

Data set [1] deals with T1, MAO A (Homo sapiens, UniProt P21397). As to the kind of experiment: MAO-Glo two-step bioluminescent assay, MAO A. Type of data set: biochemical. The following applies: for IC50: substrate 20 µM.
The target of data set [2] is T1, MAO A. Conditions: direct assay without substrate preincubation ref Fowler et al., 1982, Ramsay et al., 2020, cited from earlier work.
Data set [3] addresses MAO B (Homo sapiens, UniProt P27338). As to the kind of experiment: MAO-Glo two-step bioluminescent assay, MAO B. The class given is biochemical.
The test system of data set [4] is zebrafish brain. Description: Ex vivo bioavailability assay in fish brain (UPLC-HRMS or GC/MS). Conditions: relative brain level per 1 mg/L.

For the compound `c1ccc2c(c1)[nH]c1cnccc12` [Norharmane, norharmane], the 50% inhibitory concentration (IC50) in data set [1] (mean ± SEM, read-out: MAO a IC50) amounted to 1.05 ± 0.36 µM.
Regarding `C#CCN(C)Cc1ccccc1` [Pargyline, pargyline hydrochloride], the Ki in data set [1] was 0.85 µM; in data set [2] (read-out: Ki MAO A), 15 µM. For the same compound, 1.84 ± 0.79 µM corresponded to half-maximal inhibition in data set [1] (MAO a IC50, mean ± SEM) (IC50). Further, the “Difference between Ki values of MAO A and MAO B” value in data set [2] is recorded as 8 fold.
In the case of `c1ccc2c(c1)CCNC2` [TIQ, 1,2,3,4-tetrahydroisoquinoline], the half-maximal inhibitory concentration (IC50) was 20.9 µM and 33 µM in data set [1] (MAO a IC50, mean ± SEM); 50.2 ± 9.99 µM in data set [3]. For the same compound, the “MAO-A potency, fold less potent than harmane” value in data set [1] (from MAO-A IC50) was found to be 400 fold. Besides, the “Selectivity between MAO A and B” value in data set [1] (present study) is “no selectivity”. The “Brain level relative to the rest of compounds tested” value in data set [4] is “approximately 10 fold”.

For orientation: IC50 means the midpoint of a concentration-inhibition curve. What is called Ki is the equilibrium dissociation constant of an inhibitor or competing ligand from its target.
